This is a selection; strong and weak results do not stand in their true shares. Activity calls are given as the source filed them. Rule as the data show it: active = activity change above about 30% (passing the limit was not always enough); inactive = the rest.
Each molecule was assayed against Hepatocyte nuclear factor 4-alpha (Homo sapiens) (UniProt P41235) (assay: HNF4-alpha DNA association modulation – biochemical, fluorescence polarization, FITC-DNA, primary screen (AID 1224865)). Conditions: HNF4a-FITC DNA binding, 1 h, at 10 µM, stronger effect = higher value.

By UniProt entry, the sequences of proteins in these tests, tags left out.
UniProt P41235, whole entry: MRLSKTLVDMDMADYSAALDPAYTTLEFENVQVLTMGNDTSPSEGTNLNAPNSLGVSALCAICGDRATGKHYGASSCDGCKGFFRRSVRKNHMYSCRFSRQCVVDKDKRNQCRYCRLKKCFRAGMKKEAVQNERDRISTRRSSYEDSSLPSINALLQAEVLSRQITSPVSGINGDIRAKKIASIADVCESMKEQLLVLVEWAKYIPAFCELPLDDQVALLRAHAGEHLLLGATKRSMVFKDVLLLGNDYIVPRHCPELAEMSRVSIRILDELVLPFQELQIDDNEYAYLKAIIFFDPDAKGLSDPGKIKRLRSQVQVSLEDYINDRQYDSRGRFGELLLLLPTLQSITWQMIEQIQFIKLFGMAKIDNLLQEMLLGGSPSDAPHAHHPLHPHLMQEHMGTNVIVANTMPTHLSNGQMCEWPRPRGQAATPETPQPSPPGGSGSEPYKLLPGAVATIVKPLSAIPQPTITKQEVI

Structure (SMILES)	activity change
O=c1[nH]c2ccccc2n1C1CCN(C(c2ccccc2)c2nnnn2C2CCCCC2)CC1 (stereo not drawn)	inactive: -4.22%
O=c1[nH]c2ccccc2n1C1CCN(C(c2cccc3ccccc23)c2nnnn2C2CCCC2)CC1 (stereo not drawn)	inactive: -2.35%
COc1cc(C(=O)NCC2(N(C)C)CCCCC2)ccc1OC(F)F	inactive: -0.14%
CCOC(=O)N1CCC(Nc2cccc(C)c2)CC1	inactive: 4.46%
CCOc1ccc(C)cc1CN(CCCl)CCCl	inactive: 1.78%
CC(C)(C)n1nnnc1C(c1ccccc1)N1CCC(n2c(=O)[nH]c3ccccc32)CC1 (stereo not drawn)	inactive: 0.51%
O=C1CCN(Cc2ccccc2)CC1	inactive: 8.79%
O=C(NCC1(N2CCCCC2)CCCCC1)c1ccc(F)cc1	inactive: 2.05%
O=P1(N(CCCl)CCCl)SCCCS1	inactive: -5.29%
CCCCn1nnnc1C(c1cc2ccccc2o1)N1CCC(n2c(=O)[nH]c3ccccc32)CC1 (stereo not drawn)	inactive: 0.39%
CCCCOc1ccc(C(=O)NCC2(N3CCOCC3)CCCCC2)cc1	inactive: -1.48%
COc1ccc(NC2CCN(CCc3ccccc3)CC2)c(OC)c1	inactive: -2.25%
CCOC(=O)N1CCC(Nc2ccc(F)cc2)CC1	inactive: -0.66%
O=C(NCC1(N2CCOCC2)CCCCC1)c1cc2ccccc2o1	inactive: 0.06%
O=c1[nH]c2ccccc2n1C1CCN(C(c2ccccc2OC(F)(F)F)c2nnnn2C2CCCCC2)CC1 (stereo not drawn)	inactive: -0.08%
O=C(NCC1(N2CCCCC2)CCCCC1)c1ccc(Cl)nc1	inactive: -0.16%
Cc1cc(C)cc(N(C(=O)c2ccccc2)C2CCN(C(=O)OC(C)(C)C)CC2)c1	inactive: 2.42%
CCOC(=O)N1CCC(Nc2ccc(OC)cc2)CC1	inactive: 1.62%
CCCCn1nnnc1C(c1ccc(OC)cc1)N1CCC(n2c(=O)[nH]c3ccccc32)CC1 (stereo not drawn)	inactive: 2.82%
O=C(OC1CN2CCC1CC2)C1c2ccccc2Oc2ccccc21 (stereo not drawn)	inactive: -11.3%
O=c1[nH]c2ccccc2n1C1CCN(C(c2cc3ccccc3o2)c2nnnn2C2CCCCC2)CC1 (stereo not drawn)	inactive: -0.61%
N#CC1(Nc2ccccc2)CCN(Cc2ccccc2)CC1	inactive: -1.64%

Structure (SMILES)	activity change
O=C(NCC1(N2CCCCC2)CCCCC1)c1ccc(Cl)s1	inactive: 3.39%
COc1ccc(Cl)cc1C(=O)NCC1(N2CCOCC2)CCCCC1	inactive: 0.97%
O=C(NCC1(N2CCCCC2)CCCCC1)c1ccc(=O)[nH]c1	inactive: -0.81%
CCCCn1nnnc1C(c1cccs1)N1CCC(n2c(=O)[nH]c3ccccc32)CC1 (stereo not drawn)	inactive: 1.74%
CCCCn1nnnc1C(CC)N1CCC(n2c(=O)[nH]c3ccccc32)CC1 (stereo not drawn)	inactive: -0.93%
O=C(NCC1(N2CCCCC2)CCCCC1)c1cccs1	inactive: -1.49%
COc1ccc(C(=O)NCC2(N3CCCCC3)CCCCC2)cc1	inactive: 2.77%
CCC(c1nnnn1C1CCCC1)N1CCC(n2c(=O)[nH]c3ccccc32)CC1 (stereo not drawn)	inactive: 1.44%
COc1ccc(C(=O)NCC2(N3CCCCC3)CCCCC2)c(OC)c1OC	inactive: -2.19%
CC(C)(C)OC(=O)N1CCC(N(C(=O)c2ccccc2)c2ccc(F)cc2)CC1	inactive: 0.48%
CSc1ccccc1C(=O)NCC1(N2CCCCC2)CCCCC1	inactive: 2.34%
Cc1cccc(NC2(C#N)CCN(Cc3ccccc3)CC2)c1	inactive: 10.1%
O=C(NCC1(N2CCCCC2)CCCCC1)c1cncc(Br)c1	inactive: 0.95%
CN1CCC(Nc2cccc(F)c2)CC1	inactive: -2.44%
Cc1ccc(C(=O)NCC2(N(C)C)CCCCC2)o1	inactive: -2.5%
CCCOc1ccc(C(=O)NCC2(N(C)C)CCCCC2)cc1OC	inactive: -1.86%
COc1ccc(C(c2nnnn2C2CCCC2)N2CCC(n3c(=O)[nH]c4ccccc43)CC2)cc1 (stereo not drawn)	inactive: 4.75%
COc1ccc(CN(CCCl)CCCl)cc1Cl	inactive: -1.88%
CN(C)c1cccc(C(=O)NCC2(N3CCCCC3)CCCCC2)c1	inactive: -1.18%
CC(C)c1ccc(NC2CCN(C(=O)OC(C)(C)C)CC2)cc1	inactive: 0.1%
CCCCn1nnnc1C(c1ccccc1OC(F)(F)F)N1CCC(n2c(=O)[nH]c3ccccc32)CC1 (stereo not drawn)	inactive: 1.08%
CCCCn1nnnc1C(c1ccnc2ccccc12)N1CCC(n2c(=O)[nH]c3ccccc32)CC1 (stereo not drawn)	inactive: -2.95%

Structure (SMILES)	activity change
COc1cc(OC)c(C(=O)NCC2(N(C)C)CCCCC2)cc1OC	inactive: -0.9%
O=C(NCC1(N2CCOCC2)CCCCC1)c1cc(F)c(F)cc1Cl	inactive: 0.02%
CCC(c1nnnn1C(C)(C)C)N1CCC(n2c(=O)[nH]c3ccccc32)CC1 (stereo not drawn)	inactive: 2.63%
O=C(NCC1(N2CCCCC2)CCCCC1)c1cccc(C(F)(F)F)c1	inactive: 1.8%
CCCCn1nnnc1C(c1cccc2ccccc12)N1CCC(n2c(=O)[nH]c3ccccc32)CC1 (stereo not drawn)	inactive: 0.57%
CN1CCN(CCOC(=O)C(O)(c2ccccc2)c2ccccc2)CC1	inactive: 3.22%
COc1ccc(NC2CCN(C(=O)OC(C)(C)C)CC2)cc1	inactive: -0.91%
CC(C)c1ccc(C(=O)NCC2(N3CCOCC3)CCCCC2)cc1	inactive: -0.83%
COc1cc(C(=O)NCC2(N3CCCCC3)CCCCC2)ccc1OC(F)F	inactive: 0.42%
O=C(NCC1(N2CCOCC2)CCCCC1)c1cc(=O)[nH]c2ccccc12	inactive: 0.83%
CC(C)(C)n1nnnc1C(c1ccccc1OC(F)(F)F)N1CCC(n2c(=O)[nH]c3ccccc32)CC1 (stereo not drawn)	inactive: -7.1%
O=C(NCC1(N2CCCCC2)CCCCC1)c1ccc(OC(F)F)cc1	inactive: 4.66%
CSc1ccc(C(=O)NCC2(N3CCOCC3)CCCCC2)cc1	inactive: 0.2%
O=C(NCC1(N2CCCCC2)CCCCC1)c1cccc([N+](=O)[O-])c1	inactive: 5.6%
CCN1CCC(Nc2ccc(Cl)cc2)CC1	inactive: 1.41%
N#CC1(Nc2ccccc2)CCN(CCc2ccccc2)CC1	inactive: -2.83%
O=c1[nH]c2ccccc2n1C1CCN(C(c2ccccc2OC(F)(F)F)c2nnnn2C2CCCC2)CC1 (stereo not drawn)	inactive: 0.9%
c1ccc(CN2CCC(Nc3ccccc3)CC2)cc1	inactive: -2.99%
CCCN1CCC(Nc2cc(OC)cc(OC)c2)CC1	inactive: -4.13%
O=c1[nH]c2ccccc2n1C1CCN(C(c2ccccc2)c2nnnn2C2CCCC2)CC1 (stereo not drawn)	inactive: 1.24%
Cc1cc(N(CCCl)CCCl)ccc1C=O	inactive: -3%
CN(C)C1(CNC(=O)c2cccc(C#N)c2)CCCCC1	inactive: -0.96%

Structure (SMILES)	activity change
CC(C)(C)n1nnnc1C(c1cccc2ccccc12)N1CCC(n2c(=O)[nH]c3ccccc32)CC1 (stereo not drawn)	inactive: -1.34%
CC(C)(C)OC(=O)N1CCC(N(C(=O)c2ccccc2)c2ccc(Cl)cc2)CC1	inactive: -1.26%
N#Cc1ccc(C(=O)NCC2(N3CCCCC3)CCCCC2)cc1	inactive: 5.49%
N/C(=N\O)c1c(N)no[n+]1[O-]	inactive: 1.64%
COc1cccc(C(c2nnnn2C(C)(C)C)N2CCC(n3c(=O)[nH]c4ccccc43)CC2)c1OC (stereo not drawn)	inactive: 0.28%
CCOC(=O)N1CCC(Nc2ccc(C)cc2)CC1	inactive: 0.07%
CCCCn1nnnc1C(c1cccc(OC)c1OC)N1CCC(n2c(=O)[nH]c3ccccc32)CC1 (stereo not drawn)	inactive: 1.51%
O=C(OC1CN2CCC1CC2)C1c2ccccc2C=Cc2ccccc21 (stereo not drawn)	inactive: -1.6%
O=c1[nH]c2ccccc2n1C1CCN(C(c2cccs2)c2nnnn2C2CCCC2)CC1 (stereo not drawn)	inactive: 0.63%
O=C(NCC1(N2CCOCC2)CCCCC1)c1cc(Br)ccc1Cl	inactive: 2%
CCCCn1nnnc1C(c1ccccc1)N1CCC(n2c(=O)[nH]c3ccccc32)CC1 (stereo not drawn)	inactive: -4.46%
COc1cc(C(=O)NCC2(N3CCOCC3)CCCCC2)cc(OC)c1C	inactive: -0.75%
COc1ccc(C(=O)NCC2(N3CCOCC3)CCCCC2)cc1OC	inactive: 2.33%
O=c1[nH]c2ccccc2n1C1CCN(C(c2ccnc3ccccc23)c2nnnn2C2CCCC2)CC1 (stereo not drawn)	inactive: -0.08%
O=c1[nH]c2ccccc2n1C1CCN(C(c2cccs2)c2nnnn2C2CCCCC2)CC1 (stereo not drawn)	inactive: 3.99%
CCC(CO)(C(=O)OC1CN2CCC1CC2)c1ccccc1 (stereo not drawn)	inactive: -0.55%
COc1cccc(C(c2nnnn2C2CCCC2)N2CCC(n3c(=O)[nH]c4ccccc43)CC2)c1OC (stereo not drawn)	inactive: -2.04%
COc1cc(OC)cc(C(=O)NCC2(N3CCOCC3)CCCCC2)c1	inactive: 1.37%
COc1cccc(C(=O)N(c2cc(C)cc(C)c2)C2CCN(C(=O)OC(C)(C)C)CC2)c1	inactive: 1.39%
CN1CCC(Nc2ccc(Cl)cc2)CC1	inactive: -0.45%
CCOc1ncccc1C(=O)NCC1(N2CCOCC2)CCCCC1	inactive: 4.68%
CN1CCC(Nc2ccc(F)c(Cl)c2)CC1	inactive: -3.93%

Structure (SMILES)	activity change
CCCOc1ccc(C(=O)NCC2(N(C)C)CCCCC2)cc1	inactive: 0.39%
O=c1[nH]c2ccccc2n1C1CCN(C(c2cc3ccccc3o2)c2nnnn2C2CCCC2)CC1 (stereo not drawn)	inactive: 3.37%
CC(C)(C)OC(=O)N1CCC(Nc2ccccc2)CC1	inactive: -6.97%
O=C(O)C1(Nc2ccccc2)CCN(Cc2ccccc2)CC1	inactive: -1.12%
NN(c1ccccc1)C1CCN(CCc2ccccc2)CC1	inactive: -1.41%
Cc1ccccc1NC1(C#N)CCN(Cc2ccccc2)CC1	inactive: -1.29%
CC(C)(C)n1nnnc1C(c1ccnc2ccccc12)N1CCC(n2c(=O)[nH]c3ccccc32)CC1 (stereo not drawn)	inactive: -0.32%
COc1ccc(C(c2nnnn2C2CCCCC2)N2CCC(n3c(=O)[nH]c4ccccc43)CC2)cc1 (stereo not drawn)	inactive: 2.59%
CCN1CCC(Nc2cccc(F)c2)CC1	inactive: 1.19%
O=C(NCC1(N2CCCCC2)CCCCC1)c1ccco1	inactive: 5.9%
Cn1c(=O)[nH]cc(N(CCCl)CCCl)c1=O	inactive: -1.51%
CN(C)c1ccc(C(=O)NCC2(N3CCCCC3)CCCCC2)cc1	inactive: 4.03%
O=c1[nH]c2ccccc2n1C1CCN(C(c2ccnc3ccccc23)c2nnnn2C2CCCCC2)CC1 (stereo not drawn)	inactive: 1.32%
COc1cc(OC)cc(C(=O)NCC2(N3CCCCC3)CCCCC2)c1	inactive: 0.97%
CC(=O)N(c1ccccc1)C1CCNCC1	inactive: 1.89%
COc1cccc(C(c2nnnn2C2CCCCC2)N2CCC(n3c(=O)[nH]c4ccccc43)CC2)c1OC (stereo not drawn)	inactive: -0.38%
CCC(c1nnnn1C1CCCCC1)N1CCC(n2c(=O)[nH]c3ccccc32)CC1 (stereo not drawn)	inactive: 1%
Cc1ccc(NC2(C#N)CCN(Cc3ccccc3)CC2)cc1	inactive: 0.25%
Cc1ccc(C(=O)NCC2(N3CCCCC3)CCCCC2)o1	inactive: -1.66%
Fc1ccccc1NC1CCN(Cc2ccccc2)CC1	inactive: -4.95%
